# Test system: human liver microsomes
# Format: in vitro ADME
# Conditions: trantinterol 50.0 μM, HLM 0.5 mg/mL, inhibitor at 1 to 10-fold of reported Ki
smiles,measurement,value
C=C[C@H]1C[N@@]2CC[C@H]1C[C@@H]2[C@@H](O)c1ccnc2ccc(OC)cc12 [quinidine],Inhibition of the formation of M1,could only inhibit the formation of M1
same,Inhibition of the formation of M2,no inhibition

# From article PMC9086916 (RSC Advances, 2018)
